The results in this text go back to patent US6444684B1 (priority 1993, dated 2002).

The subject of the test is human tumor cells in hollow fibers. Briefly: NCI Hollow Fiber Assay for preliminary in vivo testing. The following applies: 2 points per dose with 50% or greater reduction in viable cell mass.

Turning to `COC(=O)c1nc(-c2ccc3c(n2)C(=O)C(N)=C(Cl)C3=O)c2[nH]c3ccccc3c2c1C` [Compound 58, 6-Chlorolavendamycin methyl ester], under “intraperitoneal fibers”, the “IP Score” value was found to be 10. Moreover, where the note is “subcutaneous fibers”, the “SC Score” value was determined as 4.
